The target in test [1] is T1, Tryptophan 2,3-dioxygenase (Homo sapiens, UniProt P48775). Kind of test: Inhibition of liver TDO.
Test [2] addresses T1, Tryptophan 2,3-dioxygenase. Description: Inhibition of human purified TDO assessed as formation of kynurenine from N-formylkynurenine preincubated for 10 mins measured after 5 to 20 mins by discontinuous colorimetric method. The essentials:
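Purified recombinant hTDO (E. coli), 1.3 μM stock, added to 50 mM Tris pH 8.0 with 20 mM ascorbate, catalase, 5 μM hemin, 10 μM methylene blue, 100 μM L-Trp and inhibitor at 0–100 μM in 5% DMSO final. Mix pre-incubated 10 min at 37 °C before enzyme. Stopped at 5–20 min with TCA, then 65 °C for 15 min. Kynurenine read at 480 nm with Ehrlich's reagent. Duplicates averaged.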

Chains of the proteins cited; added tags and fusions are not shown. Lines headed by an entry give the natural chain unless they say otherwise; changes in a name come on top.
UniProt P48775: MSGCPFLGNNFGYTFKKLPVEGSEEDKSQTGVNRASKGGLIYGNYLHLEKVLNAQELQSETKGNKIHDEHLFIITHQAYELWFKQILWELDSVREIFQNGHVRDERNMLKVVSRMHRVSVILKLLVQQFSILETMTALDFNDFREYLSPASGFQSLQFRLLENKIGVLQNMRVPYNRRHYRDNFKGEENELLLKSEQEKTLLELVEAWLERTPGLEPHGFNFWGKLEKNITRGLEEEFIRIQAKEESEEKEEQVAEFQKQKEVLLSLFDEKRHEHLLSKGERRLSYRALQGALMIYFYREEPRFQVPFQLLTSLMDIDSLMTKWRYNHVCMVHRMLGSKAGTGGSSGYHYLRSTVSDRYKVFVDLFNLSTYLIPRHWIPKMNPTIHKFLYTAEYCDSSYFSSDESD

Among the data in ChEMBL document CHEMBL2040834, “Synthesis, crystal structures and electronic properties of isomers of chloro-pyridinylvinyl-1H-indoles” (Eur J Med Chem, 2012) are Ki and IC50 values, retold here.

Broadly, the Ki is a measure of affinity in units of concentration, obtained from inhibition or displacement. A lower Ki goes with a stronger hold on the target. As usually defined, the IC50 is the concentration that gives 50% inhibition. For the molecule `Fc1ccc2c(/C=C/c3cccnc3)c[nH]c2c1`, the Ki in test [1] was found to be 30 nM. For the same molecule, the IC50 in test [2] was 1300 nM.
